These are literature values, as cited in paper PMC7894237 (Inflammation Research, 2021).

The test system of the series is CD73. The following applies: intravenous injection.

B1: IFNβ1: interferon beta (protein, UniProt P01574 22-187, looked up)
Interferon beta: MSYNLLGFLQRSSNFQCQKLLWQLNGRLEYCLKDRMNFDIPEEIKQLQQFQKEDAALTIYEMLQNIFAIFRQDSSSTGWNETIVENLLANVYHQINHLKTVLEEKLEKEDFTRGKLMSSLHLKRYYGRILHYLKAKEYSHCAWTIVRVEILRNFYFINRLTGYLRN
Turning to B1, the “CD73 cell expression in pulmonary endothelial cells” value is listed as “up-regulate”.
